pIC50: −log10 of the molar value.
Molecular target: human endothelial constitutive NOS (eNOS) (Homo sapiens, UniProt P29474)
Test: eNOS (Human) enzyme assay, radiometric conversion of [3H]L-arginine to [3H]L-citrulline
Format: biochemical
Settings: recombinant human enzyme, 37° C., 45 min
Procedure: Recombinant human inducible NOS (iNOS), human endothelial constitutive NOS (eNOS) or human neuronal constitutive NOS(nNOS) were produced in Baculovirus-infected Sf9 cells (ALEXIS). In a radiometric method, NO synthase activity was determined by measuring the conversion of [^3H]L-arginine to [^3H]L-citrulline. To measure iNOS, 10 μL of enzyme was added to 100 μL of 100 mM HEPES, pH=7,4, containing 1 mM CaCl2, 1 mM EDTA, 1 mM dithiotheitol, 1 μM FMN, 1 μM FAD, 10 μM tetrahydrobiopterin, 120 μM NADPH, and 100 nM CaM. To measure eNOS or nNOS, 10 μL of enzyme was added to 100 μL of 40 mM HEPES, pH=7.4, containing 2.4 mM CaCl2, 1 mM MgCl2, 1 mg/mL BSA, 1 mM EDTA, 1 mM dithiothreitol, 1 μM FMN, 1 μM FAD, 10 μM tetrahydrobiopterin, 1 mM NADPH, and 1.2 μM CaM.
To measure enzyme inhibition, a 15 μL solution of a test substance was added to the enzyme assay solution, followed by a pre-incubation time of 15 min at RT. The reaction was initiated by addition of 20 μL L-arginine containing 0.25 μCi of [^3H]arginine/mL and 24 μM L-arginine. The total volume of the reaction mixture was 150 μL in every well. The reactions were carried out at 37° C. for 45 min. […] An 70 μL aliquot of the supernatant was added to 100 μL of scintillation fluid and the samples were counted in a liquid scintillation counter (1450 Microbeta Jet, Wallac). […]

pIC50: 4.80
Structure (SMILES): CN1CCC(n2ccc3cc(NC(=N)c4cccs4)ccc32)CC1 [Compound 82, N-(1-(1-methylpiperidin-4-yl)-1H-indol-5-yl)thiophene-2-carboximidamide]
